Key:
miR-21 = assay: RT-qPCR of mature miR-21 levels in MDA-MB-231 cells; format: cell-based, human
Description: Cell Culture. Cells were cultured at 37° C. and 5% CO2. MDA-MB-231 cells (HTB-26, ATCC) were cultured in RMPI 1640 medium with L-glutamine & 25 mM HEPES supplemented with 1× Antibiotic/Antimycotic solution (Corning) and 10% FBS. MCF-10A cells (CRL-10317, ATCC) were cultured in 1×DMEM/F12 50/50 with L-glutamine & 15 mM HEPES (Corning) supplemented with 20% FBS, 1× Antibiotic/Antimycotic solution, 20 ng/mL human epidermal growth factor (Pepro Tech, Inc.), 10 μg/mL insulin (Sigma-Aldrich), and […] hydrocortisone (Pfaltz & Bauer). For compound treatment, compound stocks either in DMSO or water were diluted in growth medium and added to cells for the indicated time. Plasmid DNA to overexpress pre-miR-21 in pcDNA 3.1 (Addgene 21114) or a plasmid DNA encoding the pre-miR-21 mutant (custom purchased from GenScript USA, Inc.) was transfected with jetPRIME per the manufacturer's protocol. After transfection, the medium was replaced with growth medium containing the compound of interest, prepared as described above. The RNase L-targeting siRNA or a control siRNA was transfected with Lipofectamine RNAiMAX reagent (Invitrogen) per the manufacturer's protocol.
RNA Isolation and Quantitative Real-Time PCR (RT-qPCR). After treatment, total RNA was extracted and purified by using the Zymo Quick-RNA mini prep kit per the manufacturer's protocol. […]

[1] = test system: RTK / phosphorylation of ERK (pERK); assay: Western blot of ERK phosphorylation (functional RTK inhibition) in MDA-MB-231 cells; format: cell-based, human
Description: Western Blotting. MDA-MB-231 cells were plated in 6-well plates. […] After 48 h, the medium was removed, and the cells were washed with 1×DPBS. The cells were harvested by trypsinization, and total protein was extracted with MPER (Mammalian Protein Extraction Reagent, Thermo Scientific) as previously described^6. Protein concentrations were determined by using a Pierce Micro BCA Protein Assay kit (Fisher Scientific). […] The membrane was washed with 1×TBST for 10 min three times and then incubated with 1:2000 anti-rabbit IgG horseradish-peroxidase secondary antibody conjugate (Cell Signaling Technology, 7074S) in 1× TBST containing 5% (w/v) milk for about 2 h. […] After imaging, the membrane was stripped with 1× Stripping Buffer (200 mM glycine with 0.1% SDS, pH 2.2) for 120 min at RT, and β-actin level was detected as described for PDCD4 except using β-actin (Cell Signaling Technology, 3700S) primary antibody (1:5000 dilution). ImageJ software was used for quantification of the protein bands. […] In each case, the secondary antibody was diluted two times more than the primary antibody.

CN1CCN(c2ccc3nc(-c4c(N)c5c(F)cccc5[nH]c4=O)[nH]c3c2)CC1 [Compound 1, Dovitinib, reference compound] was tested, and the “concentration affecting the repurposed RNA target” value (miR-21) was 5 µM and the “concentration affecting the canonical protein target” value [1] was 100 nM.

From US12702715B2, “Targeted RNA degradation allows precision repurposing of protein-targeted small molecule medicines to RNA” (University of Florida Research Foundation, Incorporated, priority 2020, dated 2026)
